The values that follow are results of earlier work, collected in patent publication US20220280646A1, “COMPOSITIONS AND METHODS INVOLVING POLYMER, SOLVENT AND HIGH VISCOSITY LIQUID CARRIER MATERIAL” (DURECT CORPORATION, priority 2013, published 2022).

The conditions of this data set: 2 mg oral; cited from earlier work.

With `Cc1nc2n(c(=O)c1CCN1CCC(c3noc4cc(F)ccc34)CC1)CCCC2` [Risperdal, risperidone], the “average Cmax for risperidone” value is on record as 181 ng/mL.
